Antibody variant affinities, Ab-14 heavy chain, assay B

Values reported by Li et al. 2023, doi:10.1038/s41467-023-39022-2 (FLAb copy).

Binding partner: SARS-CoV-2 spike HR2 peptide, sequence PDVDLGDISGINAS.

The variants keep the light chain, the linker and the frameworks of Ab-14 (scFv order VH, a (GGGGS)3 linker, VL).
VH: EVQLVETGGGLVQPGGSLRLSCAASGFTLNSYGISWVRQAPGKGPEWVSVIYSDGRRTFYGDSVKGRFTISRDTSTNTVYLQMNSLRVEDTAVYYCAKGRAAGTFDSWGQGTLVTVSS
VL: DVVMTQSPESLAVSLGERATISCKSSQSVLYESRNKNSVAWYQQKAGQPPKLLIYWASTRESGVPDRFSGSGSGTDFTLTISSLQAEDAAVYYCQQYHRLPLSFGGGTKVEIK

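The parent was found by panning a naive human phage display library on the peptide. The variants were designed computationally from a first round of random CDR variants and then made and measured. Their group label is 14H_GP_Gen (GP: Gaussian process model; Gen: genetic algorithm; a sequence that several methods proposed may carry one label only). The assay is AlphaSeq: two haploid yeast populations carry antibody and antigen on their surface. Pairs that bind mate more often; barcode pairs of the diploids are counted by sequencing. The ratio of observed to expected reads was calibrated, replicate by replicate, on BCL2-family standards whose Kd was known from biolayer interferometry. There are six technical replicates.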

Each variant is given by its three heavy chain CDRs, as the data file delimits them; those of the parent are GFTLNSYGIS, VIYSDGRRTFYGDSVK, GRAAGTFDS. Scale: log10 of Kd in nM, estimated from mating counts; low values are strong binders. The mean shown is taken over the replicates in which the pair was detected. Where no diploid with the target was found in that replicate, the entry reads "n.d.": below detection, most likely a poor binder, though not proof of it. Empty control strains, which show no peptide, gave a signal in 1% of pairings with all heavy chain designs; the median was 2.08 and 95% of these signals were weaker than 0.84. No background was subtracted. Also given: how often the same scFv was detected with the empty control strains, with their mean in brackets.

CDR-H1,CDR-H2,CDR-H3,"replicates, log10 nM","mean, log10 nM",empty controls
GFSLNSYGIS,VIYSDGRRTFYHDSVK,GRNAGTFDS,0.62 / 0.49 / 0.35 / 0.73 / 0.61 / 0.52,0.55,0 of 18
GFNLNSYGIS,VIYSDGRRTFYKDSVK,GQVAGTFDS,0.31 / -0.09 / -0.36 / -0.20 / -0.13 / -0.02,-0.08,1 of 18 (1.54)
GFDLNSYGIS,VIYSDGRRTFYGDSVK,GQTAGTFDE,0.08 / -0.12 / 0.21 / -0.08 / -0.12 / 0.05,0.00,1 of 18 (2.68)
MFDLNSYGIS,VIYSDGRRTFYGDSVK,GRTAGTFDV,1.43 / 2.03 / n.d. / 1.01 / n.d. / 0.32,1.19,0 of 18
GFSLNSYGIS,VIYSDGRRTFYGDSVK,GNEAGTFDT,-0.38 / -0.49 / -0.34 / -0.20 / -0.45 / 0.25,-0.27,0 of 18
GFSLNEYGIS,VIYSDGRRTFYGWSVK,GRQAGTFDS,n.d. / n.d. / n.d. / 1.78 / 0.88 / n.d.,1.33,0 of 18
GFDLNSYGIS,VIYSDGKRTFYGDSVK,GNAAGTFDS,0.90 / 1.47 / 2.63 / 0.37 / 0.44 / 0.97,1.13,1 of 18 (2.41)
GFELNSYGIS,VIYSDGRRTFYGDSVK,GQVAGTFDT,0.23 / 0.71 / 0.07 / 0.51 / 0.30 / 0.30,0.35,0 of 18
GFSLNSYGIS,VIYSDGRRTFYGDSVK,GSTAGTFDR,1.34 / -0.01 / 0.93 / 0.16 / 0.39 / 0.42,0.54,0 of 18
GFDLNEYGIS,VIYSDGRRTFYHDSVK,GRTAGTFDS,-0.12 / -0.03 / -0.17 / -0.15 / -0.25 / -0.16,-0.15,0 of 18
GFDLNSYGIS,VIYSDGRRTFYGDSVK,GKTAGTFDF,1.01 / 0.12 / 0.09 / -0.12 / 0.02 / 0.12,0.21,1 of 18 (2.48)
GFTLESYGIS,VIYSDGRRTFYIDSVK,GKAAGTFDS,n.d. / n.d. / n.d. / n.d. / n.d. / 0.81,0.81,0 of 18
GFELNSYGIS,VIYSDGRRTFYQDSVK,GRMAGTFDS,0.81 / 1.38 / 0.96 / 1.43 / 0.78 / 1.98,1.22,0 of 18
GFDLNWYGIS,VIYSDGRRTFYGDSVK,GRTAGTFDS,0.84 / 0.25 / 1.11 / 0.42 / 0.68 / 0.64,0.66,0 of 18
GFVLNEYGIS,VIYSDGRRTFYKDSVK,GRTAGTFDS,0.58 / -0.25 / 0.30 / -0.37 / 0.18 / -0.10,0.06,0 of 18
GFGLNEYGIS,VIYSDGRRTFYGDSVK,GRTAGTFDA,-0.11 / 0.14 / -0.24 / -0.27 / -0.07 / 0.07,-0.08,1 of 18 (2.67)
GFSLNSYGIS,VIYSDGRRTFYVDSVK,GKAAGTFDQ,n.d. / n.d. / n.d. / n.d. / n.d. / n.d.,n.d.,0 of 18
GFQLNEYGIS,VIYSDGRRTFYGDSVK,GRIAGTFDS,-0.50 / -0.57 / -0.36 / -0.96 / 0.04 / -0.34,-0.45,0 of 18
GFELNSYGIS,VIYSDGRRTFYGDSVK,GSQAGTFDS,1.51 / 0.63 / 0.29 / 0.73 / 0.52 / 0.66,0.72,0 of 18
GFELNEYGIS,VIYSDGRRTFYGDDVK,GRTAGTFDS,0.00 / -0.14 / -0.72 / -0.58 / 0.10 / -0.22,-0.26,0 of 18
GFELNSYGIS,VIYADGRRTFYGDSVK,GRLAGTFDS,-0.28 / -0.23 / -0.46 / -0.84 / -0.45 / -0.07,-0.39,0 of 18
GFELNSYGIS,VIYSDGRRTFYADQVK,GKTAGTFDS,0.56 / 0.53 / 0.59 / 0.18 / 0.57 / 0.27,0.45,0 of 18
GFSLNSYGIS,VIYSDGRRTFYADDVK,GNAAGTFDK,0.40 / 0.43 / 0.03 / 0.03 / 0.21 / 0.29,0.23,0 of 18
HFDLNSYGIS,VIYSDGRRTFYGDSVK,GRQAGTFDS,1.99 / 1.70 / 1.68 / 1.67 / 1.39 / 2.14,1.76,0 of 18
PFDLNSYGIS,VIYSDGRRTFYGDSVK,GREAGTFDS,n.d. / n.d. / n.d. / n.d. / n.d. / n.d.,n.d.,0 of 18
GFTLNSYGIS,VIYSDGKRTFYIDSVK,GREAGTFDS,1.18 / 1.04 / 0.99 / 0.89 / 1.90 / 1.46,1.24,0 of 18
AFDLNSYGIS,VIYSDGRRTFYGDSVK,GRTAGTFDS,0.16 / 0.44 / 0.21 / 0.20 / -0.14 / 0.28,0.19,0 of 18
GFELNSYGIS,VIYSDGRRTAYGDDVK,GRTAGTFDS,0.60 / 0.30 / -0.20 / -0.22 / 0.38 / -0.39,0.08,0 of 18
GFELNSYGIS,VIYSDGRRTFYGDMVK,GKTAGTFDS,n.d. / 0.90 / 1.08 / 0.85 / n.d. / n.d.,0.94,0 of 18
GFELNSYGIS,VIYSDGRRTFYADSVK,GRIAGTFDS,0.94 / 1.78 / 0.33 / 0.15 / 2.00 / 2.35,1.26,0 of 18
GFDLNSYGIS,VIYSDGRRTAYGDSVK,GRAAGTFDA,n.d. / n.d. / n.d. / n.d. / n.d. / n.d.,n.d.,0 of 18
GFELNEYGIS,VIYSDGRRTFYGDSVK,GKNAGTFDS,n.d. / n.d. / 0.22 / -0.51 / 1.47 / 0.27,0.36,0 of 18

A selection of 5 entries from above:

CDR-H1,CDR-H2,CDR-H3,"replicates, log10 nM","mean, log10 nM",empty controls
GFSLNSYGIS,VIYSDGRRTFYADDVK,GNAAGTFDK,0.40 / 0.43 / 0.03 / 0.03 / 0.21 / 0.29,0.23,0 of 18
GFGLNEYGIS,VIYSDGRRTFYGDSVK,GRTAGTFDA,-0.11 / 0.14 / -0.24 / -0.27 / -0.07 / 0.07,-0.08,1 of 18 (2.67)
GFELNSYGIS,VIYSDGRRTFYADQVK,GKTAGTFDS,0.56 / 0.53 / 0.59 / 0.18 / 0.57 / 0.27,0.45,0 of 18
AFDLNSYGIS,VIYSDGRRTFYGDSVK,GRTAGTFDS,0.16 / 0.44 / 0.21 / 0.20 / -0.14 / 0.28,0.19,0 of 18
GFDLNSYGIS,VIYSDGRRTAYGDSVK,GRAAGTFDA,n.d. / n.d. / n.d. / n.d. / n.d. / n.d.,n.d.,0 of 18

The authors' rule: three or more of the six replicates give a measured affinity, fewer mean a poor binder. The parent sequence was in this pool as ten entries: three were never detected, three once, and four in most replicates, with averages from 0.34 to 2.37. The range of this assay differs from that of the first round, and the authors advise against merging the two.